Measured values: ChEMBL document CHEMBL1154346 (Bioorg Med Chem Lett, 2009)

Sequences of proteins named here, by UniProt entry; tags and fusion partners are left off.
UniProt P41146, whole entry: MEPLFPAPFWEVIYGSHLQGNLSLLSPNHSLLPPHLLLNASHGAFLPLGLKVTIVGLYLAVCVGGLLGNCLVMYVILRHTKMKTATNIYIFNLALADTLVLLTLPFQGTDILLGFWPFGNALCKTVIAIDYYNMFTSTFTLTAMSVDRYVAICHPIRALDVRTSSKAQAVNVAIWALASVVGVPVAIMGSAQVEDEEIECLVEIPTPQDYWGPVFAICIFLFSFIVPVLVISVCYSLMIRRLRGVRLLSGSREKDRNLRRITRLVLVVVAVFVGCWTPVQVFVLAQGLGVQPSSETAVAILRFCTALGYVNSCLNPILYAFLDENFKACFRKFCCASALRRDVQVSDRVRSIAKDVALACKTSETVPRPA

Target: Nociceptin receptor (Homo sapiens) (UniProt P41146)
Assay: Agonist activity at human NOP receptor expressed in CHO cells assessed as inhibition of forskolin-stimulated cAMP production after 2 hrs relative to nociceptin
Design: scale not given: the % may be the effect or the level left

SMILES | Activity [%]
CNC(=O)Cn1c(=O)n(C2CCN([C@H]3CC[C@@H](C(C)C)CC3)CC2)c2ccccc21 | 101
CNC(=O)CN1Cc2ccccc2N(C2CCN(C3CCCCCCCCC3)CC2)S1(=O)=O | 93
CNC(=O)Cn1c(=O)n(C2CCN([C@H]3CC[C@H](C(C)C)CC3)CC2)c2ccccc21 | 92
